Molecular target: human CB1 receptor (Homo sapiens, UniProt P21554)
Assay: cell-based
Conditions: for Emax: CHO, read-out: efficacy (maximal response)

Sequences of proteins named here, by UniProt entry; tags and fusion partners are left off.
UniProt P21554, whole entry: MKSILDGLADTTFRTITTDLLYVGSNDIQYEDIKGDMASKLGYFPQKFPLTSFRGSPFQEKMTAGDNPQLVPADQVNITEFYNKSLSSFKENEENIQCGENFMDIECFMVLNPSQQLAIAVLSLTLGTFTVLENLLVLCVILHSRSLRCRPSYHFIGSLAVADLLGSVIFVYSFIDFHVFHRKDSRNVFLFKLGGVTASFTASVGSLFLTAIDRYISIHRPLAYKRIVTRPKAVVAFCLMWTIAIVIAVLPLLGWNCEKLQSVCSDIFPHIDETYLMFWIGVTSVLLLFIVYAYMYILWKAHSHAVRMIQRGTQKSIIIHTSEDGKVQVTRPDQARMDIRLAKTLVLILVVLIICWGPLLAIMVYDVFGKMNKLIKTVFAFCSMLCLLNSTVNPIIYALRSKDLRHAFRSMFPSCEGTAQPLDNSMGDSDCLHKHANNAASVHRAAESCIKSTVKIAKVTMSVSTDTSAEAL

| Structure (SMILES) | EC50 [nM] | Emax [%] |
| --- | --- | --- |
| CCOC(=O)c1c(C)cc2nc(COC(=O)NCCO)n(-c3ccccc3S(=O)(=O)NC)c(=O)c2c1C [Compound 1a, 2-(2-Hydroxy-ethylcarbamoyloxymethyl)-5,7-dimethyl-3-(2-methylsulfamoylphenyl)-4-oxo-3,4-dihydro-quinazoline-6-carboxylic acid ethyl ester] | 94 | 67 |
| Cl.O=C(NCCO)[C@H]1CCCN(Cc2nc(-c3cn(CC4CCS(=O)(=O)CC4)c4c(Cl)cccc34)ns2)C1 [Compound 2, (S)-7-Chloro-3-[(5-{[3-N-(2-hydroxyethyl)carboxamido]piperidin-1-yl}methyl)([1,2,4]-thiadiazol-3-yl)]-1-(1,1-dioxo-hexahydrothiopyran-4-yl)methyl-1H-indole, hydrochloride salt] | 23 | 42 |

Source: US20090029984A1 (priority 2005, published 2009)
